The results in this text go back to patent publication US9958461B2, “Detection of protein to protein interactions” (THE GOVERNING COUNCIL OF THE UNIVERSITY OF TORONTO, priority 2013, dated 2018).

Experiment [1] has as its target T1, EGFR-Wt (Homo sapiens, UniProt P00533).
T1 construct: with the advantage of testing full-length integral membrane proteins; (GGGGS)2 linker-Cub (human ubiquitin aa 35-76)-GAL4(1-147)-mNFkB(364-550) (C); expressed in transfected cells
The experiment in a line: MaMTH EGFR-interactor screen, lentiviral preys against EGFR-wildtype bait (interaction score). It counts as cell-based. As to conditions: MaMTH interaction score of prey with EGFR-Wt bait, mean. The procedure:
(§1) After lentivirus harvest, target cells (stable 5×GAL4UAS-luciferase reporter-HEK293T cells) were infected at a multiplicity of infection (MOI) of around 0.3-0.4 to ensure single copy integration per cell. Cells were selected in puromycin for at least 48 h and transfected with either EGFR-wildtype or EGFR-L858R baits in triplicates. 24 h after transfection, cells were lysed and luciferase assays performed. On each set of interaction assays, various negative controls were included. To calculate a MaMTH-interaction scores, negative controls were averaged and the fold-change of luciferase activity compared to the averaged controls was calculated and defined as the interaction score.
(§2) Each set of experiments contains a defined set of negative controls in at least three replicates. Negative controls were chosen as such that there is a range of controls showing high-background luciferase activity (normally cytosolic proteins: Fabp5, Pex19) as well as medium-background luciferase activity (membrane-bound interactors: Pex7, GABBR2). Negative controls were averaged and the fold-change of luciferase activity was calculated. Using this method, we have a stringent cut-off and chose an interaction score >1 to be interacting proteins.
(§3) Our cut-off of 1 is based on fold-change difference in luciferase activity over averaged negative controls. Negative controls include cytosolic preys (which tend to promiscuously bind to many proteins), plasma membrane- and peroxisomal-prey proteins. In general, we chose stringent conditions by testing preys that tend to have high luciferase background with any bait tested, in order to generate high-confidence interaction data. […] Phosphorylated tyrosine residues on the receptor are typically docking sites for downstream cytoplasmic targets and recognized through SH2 or PTB domains^43.

Experiment [2] concerns EGFR-Wt. Described as above. The experiment is classed as cell-based, human. As to conditions: ratio of EGFR-Wt mean to EGFR-L858R mean interaction score. On the procedure: as §1, §2, §3
Another experiment addresses T2, EGFR-L858R (Homo sapiens, UniProt P00533, L858R).
T2 construct: with the advantage of testing full-length integral membrane proteins; (GGGGS)2 linker-Cub (human ubiquitin aa 35-76)-GAL4(1-147)-mNFkB(364-550) (C); expressed in transfected cells
In words: MaMTH EGFR-interactor screen, lentiviral preys against EGFR-L858R bait (interaction score). It counts as cell-based. As to conditions: MaMTH interaction score of prey with EGFR-L858R bait. On the procedure: as §1, §2, §3

On to ARRB2, for which the EGFR-Wt mean with EGFR-Wt [1] was 2.52. In the experiment on EGFR-Wt [2], the Wt/L858R was 0.47. Further, in the experiment with EGFR-L858R, the EGFR-L858R mean amounted to 5.38.
CDK1 displayed an EGFR-Wt mean with EGFR-Wt [1] of 1.64. Besides, in the experiment with EGFR-Wt [2], the Wt/L858R was 0.83. The substance further displayed an EGFR-L858R mean with EGFR-L858R of 1.97.
In the experiment with EGFR-Wt [1], RAF1 gave an EGFR-Wt mean of 4.91. The Wt/L858R with EGFR-Wt [2] came out at 1.29. This substance came in with an EGFR-L858R mean in the experiment with EGFR-L858R of 3.81.
